Source: patent US11312727B1, “Macrocyclic flu endonuclease inhibitors” (Janssen BioPharma, Inc., priority 2018, dated 2022)

Target: EN PA (full length recombinant PA endonuclease) (Influenza A virus (strain A/Wilson-Smith/1933 H1N1) (Influenza A virus (strain A/WS/1933 H1N1)), UniProt P15659)
Type: biochemical
Settings: read-out: FRET_ _IC50

Work on `O=C1c2c(O)c(=O)ccn2N2CN1C/C=C\CCc1ccccc1C2c1ccncc1` (single isomer, unassigned) [Compound 52A, (16*R,*Z)-4-hydroxy-16-(pyridin-4-yl)-7,10,11,16-tetrahydro-6,17-methanobenzo[k]pyrido[1,2-b][1,2,5]triazacyclotridecine-3,5-dione] yielded an IC50 of 653 nM.
Compound `O=C1c2c(O)c(=O)ccn2N2CN1C/C=C/CCc1c(F)cccc1C2c1cccc(F)n1` (single isomer, unassigned) [Compound 76B, (16*S,E)-12-fluoro-16-(6-fluoropyridin-2-yl)-4-hydroxy-7,10,11,16-tetrahydro-6,17-methanobenzo[k]pyrido[1,2-b][1,2,5]triazacyclotridecine-3,5-dione] has an IC50 of 9 nM.
`O=C1c2c(O)c(=O)ccn2N2CN1C/C=C\CCc1ccccc1C2c1ccncc1` (single isomer, unassigned) [Compound 52B, (16*S,*Z)-4-hydroxy-16-(pyridin-4-yl)-7,10,11,16-tetrahydro-6,17-methanobenzo[k]pyrido[1,2-b][1,2,5]triazacyclotridecine-3,5-dione] was tested, and the IC50 was 40 nM.
`O=C1c2c(O)c(=O)ccn2N2CN1C/C=C/CCc1c(F)cccc1C2c1cccc(F)n1` (single isomer, unassigned) [Compound 76A, (16*R,E)-12-fluoro-16-(6-fluoropyridin-2-yl)-4-hydroxy-7,10,11,16-tetrahydro-6,17-methanobenzo[k]pyrido[1,2-b][1,2,5]triazacyclotridecine-3,5-dione] was tested, and the IC50 was 346 nM.
